From patent US20250129069A1, “TRIAZOLO WRN INHIBITORS” (Nimbus Wadjet, Inc., priority 2023, published 2025)

Amino acid sequences for entries named in this document (tags omitted). Chains listed by the source or under a name are the forms on record and can include a tag or linker. Residues count along the entry.
UniProt Q14191, 517-1235 with tags or gaps L1074F limits assumed: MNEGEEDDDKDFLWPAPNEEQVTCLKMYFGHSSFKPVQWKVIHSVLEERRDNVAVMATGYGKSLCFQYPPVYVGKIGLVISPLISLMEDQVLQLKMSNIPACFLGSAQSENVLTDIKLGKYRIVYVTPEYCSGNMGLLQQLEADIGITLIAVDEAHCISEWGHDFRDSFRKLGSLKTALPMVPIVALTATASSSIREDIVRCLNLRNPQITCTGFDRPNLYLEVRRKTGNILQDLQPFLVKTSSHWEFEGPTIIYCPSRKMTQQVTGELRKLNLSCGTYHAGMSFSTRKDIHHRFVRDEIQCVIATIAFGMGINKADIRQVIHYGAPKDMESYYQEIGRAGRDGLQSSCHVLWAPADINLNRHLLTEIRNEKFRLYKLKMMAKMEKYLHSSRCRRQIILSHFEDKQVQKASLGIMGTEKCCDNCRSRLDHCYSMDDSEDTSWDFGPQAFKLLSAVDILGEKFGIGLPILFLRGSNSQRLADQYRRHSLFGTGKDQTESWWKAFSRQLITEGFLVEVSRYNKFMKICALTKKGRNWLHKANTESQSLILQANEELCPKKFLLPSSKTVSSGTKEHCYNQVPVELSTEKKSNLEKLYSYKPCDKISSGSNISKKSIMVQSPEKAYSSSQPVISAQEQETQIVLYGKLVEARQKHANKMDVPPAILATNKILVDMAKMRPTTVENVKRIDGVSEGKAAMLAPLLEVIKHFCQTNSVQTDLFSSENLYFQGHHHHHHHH

Assays:
[1] = biological target: human Werner helicase (WRN, amino acids 517-1235 with L1074F point mutation) (Homo sapiens (Human), UniProt Q14191, L1074F); experiment: WRN (BV08) ADP-Glo assay; conditions: read-out: ADP-Glo_hWRN_IC50, human WRN (aa 517-1235, L1074F)
[2] = tested on: p21 induction in HCT 116 cells; experiment: p21 induction in cells (In-Cell Western, p21/GAPDH ratio); conditions: read-out: p21_EC50, 24 h compound incubation
Method: The colon carcinoma cell line HCT 116 was obtained from ATCC and cultured in growth medium consisting of Mccoy's 5A Medium (Gibco 16600108) supplemented with 10% FBS (Transgene FS201-02) and 100 units/mL penicillin-streptomycin (Gibco 15140122) and maintained at 37° C. under 5% CO2. On the day of seeding, 2,000 cells in 30 μL of culture media were plated per well to Poly-D-Lysine 384 Well Black Clear Plates (Biocoat 356663) and incubated overnight at 37° C. under 5% CO2. The following day, compounds were serially diluted in DMSO for a total of 11 test concentrations. The typical starting concentration of compounds was 10 μM with 2-fold dilutions. Next, 150 nL of diluted compound was added in duplicate to the assay plate, using an Echo 655 (Labcyte). The plate was centrifuged at 500 RPM for 1 min and then incubated at 37° C. under 5% CO2 for 24 h. […] Finally, the p21 signal and the GAPDH signal were quantified using a LI-COR Odyssey CLx Imager machine reading at 800 nm and 700 nm, respectively. […] For quantitation, the 800 nm/700 nm ratio was calculated for each well to give fold p21 induction and then percent activation for each compound well was calculated as follows (100×(ratio cpd well-ratio low control)/(ratio high control−ratio low control). EC50 values for each compound was generated after non-linear regression curve fitting using commercially available software.

IC50 [1]: 5 to 50 nM
EC50 [2]: 2000 to 5000 nM
SMILES: CCc1c(N2CCN(C(=O)c3c(O)cc(OC)cc3OC)CC2)c(=O)c2nn(-c3ccnc(OC)c3)nc2n1CC(=O)NC12CC(C3CC3)(C1)C2
